The target of this assay is PARP-1 enzyme (Homo sapiens (Human), UniProt P09874). The assay is described as follows: Poly(ADP-ribose)polymerase [PARP-1] enzyme inhibitory activity (Trevigen PARP Assay kit). It is filed as biochemical. As to conditions: read-out: PARP-1 Inhibitory activity IC50; tested form: 2HCl.

The chains behind the UniProt entries cited, without tags or fusion partners.
UniProt P09874, whole entry: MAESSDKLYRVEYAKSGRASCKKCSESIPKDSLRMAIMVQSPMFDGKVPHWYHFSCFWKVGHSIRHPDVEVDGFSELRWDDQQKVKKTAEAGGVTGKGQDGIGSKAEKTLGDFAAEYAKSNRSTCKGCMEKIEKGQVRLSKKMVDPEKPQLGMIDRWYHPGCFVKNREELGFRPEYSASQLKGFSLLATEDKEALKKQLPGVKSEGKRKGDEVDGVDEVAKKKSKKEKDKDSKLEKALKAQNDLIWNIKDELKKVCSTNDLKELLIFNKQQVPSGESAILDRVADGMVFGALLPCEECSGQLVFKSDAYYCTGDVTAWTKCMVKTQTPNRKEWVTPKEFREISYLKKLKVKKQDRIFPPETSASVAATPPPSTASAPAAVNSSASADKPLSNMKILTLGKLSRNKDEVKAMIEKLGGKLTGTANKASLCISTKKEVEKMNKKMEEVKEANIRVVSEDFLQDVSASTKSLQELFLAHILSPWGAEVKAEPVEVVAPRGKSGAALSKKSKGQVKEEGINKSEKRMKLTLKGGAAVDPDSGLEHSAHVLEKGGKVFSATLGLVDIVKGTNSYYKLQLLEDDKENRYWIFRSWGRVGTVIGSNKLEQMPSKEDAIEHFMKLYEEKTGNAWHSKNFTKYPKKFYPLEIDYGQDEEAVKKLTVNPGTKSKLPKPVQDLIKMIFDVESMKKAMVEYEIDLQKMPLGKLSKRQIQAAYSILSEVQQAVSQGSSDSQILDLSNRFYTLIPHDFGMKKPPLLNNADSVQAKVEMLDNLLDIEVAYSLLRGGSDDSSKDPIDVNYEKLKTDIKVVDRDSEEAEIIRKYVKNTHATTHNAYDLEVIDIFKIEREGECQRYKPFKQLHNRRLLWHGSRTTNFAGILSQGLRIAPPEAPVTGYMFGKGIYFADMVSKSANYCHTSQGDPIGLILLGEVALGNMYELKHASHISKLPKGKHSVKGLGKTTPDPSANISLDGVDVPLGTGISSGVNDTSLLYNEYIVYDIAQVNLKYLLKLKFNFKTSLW

The term IC50 denotes the concentration needed to halve the response being measured. For the compound `O=C(NCCN1CCCCC1)c1ccc2[nH]c(=O)c3c(c2c1)NCCC3`, the IC50 was 1050 nM.

The values above are taken from patent publication US8815891B2, “Tricyclic derivative or pharmaceutically acceptable salts thereof, preparation method thereof, and pharmaceutical composition containing the same” (Je Il Pharmaceutical Co., Ltd., priority 2008, dated 2014).
